Values of other authors in paper PMC8920107 (ADMET & DMPK, 2020).

Tested on: AGP
Conditions: calibration drugs, equilibrium dialysis literature % binding; cited from earlier work

O=C(O)Cc1ccccc1Nc1c(Cl)cccc1Cl [Diclofenac]
% AGP: 60%
